Earlier results, collected in patent US20040120985A1, “Food product for increasing the cognitive functional capacity” (priority 2001, published 2004).

Conditions: oral administration, radioactively labeled

Q: With phosphatidyl serine as the substance, how does the “time after which detectable in the blood” value read?
A: Its value is 30 min.
